In patent US20240245771A1 (XUZHOU MEDICAL UNIVERSITY, published 2024):

Molecular target: T1, B7H3 target antigen (UniProt Q5ZPR3 29-466, limits assumed)
T1 construct: Control antigen is called 'other biotin-free antigen', which hints that this antigen may be biotinylated; also called B7H3 antigen; B7-H3 antigen
T1 sequence (looked up): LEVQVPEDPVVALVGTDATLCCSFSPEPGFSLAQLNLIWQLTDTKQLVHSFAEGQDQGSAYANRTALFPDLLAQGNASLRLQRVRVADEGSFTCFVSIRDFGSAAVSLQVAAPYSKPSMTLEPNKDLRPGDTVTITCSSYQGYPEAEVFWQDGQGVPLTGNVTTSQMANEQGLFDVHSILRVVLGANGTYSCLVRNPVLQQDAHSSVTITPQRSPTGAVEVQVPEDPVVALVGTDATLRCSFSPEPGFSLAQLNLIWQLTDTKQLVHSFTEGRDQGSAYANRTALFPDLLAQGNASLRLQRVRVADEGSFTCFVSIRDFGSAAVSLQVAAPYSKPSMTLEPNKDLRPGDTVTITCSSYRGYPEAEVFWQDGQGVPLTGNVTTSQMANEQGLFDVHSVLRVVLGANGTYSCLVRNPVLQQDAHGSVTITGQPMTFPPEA
Experiment: SPR (Biacore): B7H3-02 antibody at 1 µg/mL captured on a Protein A chip, B7-H3 antigen flowed over in a concentration series, Langmuir fit

B1: purified B7H3-02 scFv protein (prokaryotic expression, pET-22b) (scFv)
scFv: EVQLFQSGGGLVQPGGSLRLSCAASGFTFSSYAMSWVRQAPGKGLEWVSAISGSGGSTYYADSVKGRFTISRDNSKNTLYLQMNSLRAEDTAVYYCARGVGRGFDYWGQGTTVTVSSSGGGSGGGGSGGGGSDIQLTQSPSSLSASVGDRVTITCRASQSISIYLNWYRQQPGKAPKLLIYAASSLQSGVPSRFSGSGSGTDFTLTISSLQPEDFATYFCQQTYSTPPWTFGQGTKVDIK
notes: The Biacore experiment speaks of 'purified B7H3-02 antibodies' captured on a Protein A chip; also called B7H3-02 scFv antibody; B7H3-02 antibody; not shown: His tag implied (detected with His antibodies, pET-22b vector)
- koff: 0.124 s⁻¹
- kon: 4.47e+06 M⁻¹ s⁻¹
